Data reported in PubChem BioAssay AID1224903 (Bradner/Qi Labs at DFCI, 2016).
The list shows a part of the results, in another mix than the full data. The source made the active and inactive calls. No stated cut-off is given here; in the data, active means normalised signal below about 0.5; inactive means the rest, inconclusive results apart.

Amino acid sequences for entries named in this document (tags omitted).
UniProt O95931, whole entry: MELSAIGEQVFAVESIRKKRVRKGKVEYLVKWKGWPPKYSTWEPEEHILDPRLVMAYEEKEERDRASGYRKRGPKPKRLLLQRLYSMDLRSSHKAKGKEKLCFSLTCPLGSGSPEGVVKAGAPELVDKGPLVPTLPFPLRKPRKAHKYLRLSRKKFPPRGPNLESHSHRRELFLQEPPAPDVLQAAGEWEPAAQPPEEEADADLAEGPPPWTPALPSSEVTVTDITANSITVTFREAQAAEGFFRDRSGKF

biological target: Chromobox protein homolog 7 (Homo sapiens) (UniProt O95931); assay: CBX7 chromodomain binding inhibitors, primary screen, biochemical, AlphaScreen (AID 1224903); settings: AlphaScreen His6-CBX7 / biotin-H3K27me3 peptide binding; hits give low values

Structure (SMILES)	normalised signal (fraction of DMSO)
C1CN(c2nonc2-[n+]2nc3nonc3[n-]2)CCO1	inactive: 0.875
O=C(OCCN1CCN(CCOCc2ccccc2)CC1)C(O)(c1ccccc1)c1ccccc1	inactive: 1.39
C=CCN1CCN(CCOC(=O)C(O)(c2ccccc2)c2ccccc2)CC1	inactive: 1.38
